In patent US20240261378A1 (UNM RAINFOREST INNOVATIONS, published 2024):

Target: T1, endogenous TRIM16 (human, UniProt O95361)
T1 construct: Endogenous protein, immunoprecipitated from cell lysates
Assay: co-IP and reverse co-IP of endogenous proteins, HeLa cells

binding result: binds
B1: endogenous ATG16L1 (other, UniProt Q676U5 1-607, looked up)
chain: MSSGLRAADFPRWKRHISEQLRRRDRLQRQAFEEIILQYNKLLEKSDLHSVLAQKLQAEKHDVPNRHEISPGHDGTWNDNQLQEMAQLRIKHQEELTELHKKRGELAQLVIDLNNQMQRKDREMQMNEAKIAECLQTISDLETECLDLRTKLCDLERANQTLKDEYDALQITFTALEGKLRKTTEENQELVTRWMAEKAQEANRLNAENEKDSRRRQARLQKELAEAAKEPLPVEQDDDIEVIVDETSDHTEETSPVRAISRAATKRLSQPAGGLLDSITNIFGRRSVSSFPVPQDNVDTHPGSGKEVRVPATALCVFDAHDGEVNAVQFSPGSRLLATGGMDRRVKLWEVFGEKCEFKGSLSGSNAGITSIEFDSAGSYLLAASNDFASRIWTVDDYRLRHTLTGHSGKVLSAKFLLDNARIVSGSHDRTLKLWDLRSKVCIKTVFAGSSCNDIVCTEQCVMSGHFDKKIRFWDIRSESIVREMELLGKITALDLNPERTELLSCSRDDLLKVIDLRTNAIKQTFSAPGFKCGSDWTRVVFSPDGSYVAAGSAEGSLYIWSVLTGKVEKVLSKQHSSSINAVAWSPSGSHVVSVDKGCKAVLWAQY
